Screening results from PubChem BioAssay.
UUG fidelity: alters start codon recognition fidelity in yeast; S. cerevisiae UUG-firefly luciferase reporter, luminescence/redox ratio; activity score, % at 18.7 µM; hit rate 0.13% among 350,000;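 active = replicate mean at a twofold rise or more, about +100% in these data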;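 also: firefly luciferase made from a UUG start codon reports start codon fidelity; reporter light over untreated wells divided by growth signal over untreated wells; some hits fall short of that in this replicate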
CASP6 VEID inh: inhibitors of human caspase-6. P55212. purified caspase-6, Z-VEID-R110 cleavage fluorescence. inhibition, % at 12.5 µM. 350,000 compounds, 0.53% hits. AID 686996;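 active means mean inhibition across replicates at least about 35%, with every replicate also reaching that limit, limit read from the data; inconclusive means only one of the two criteria met; inactive means neither criterion met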;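 further: 0% = median of neutral control wells and 100% = no fluorescence left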
GSIS activator: primary screen for activators of insulin secretion dependent on glucose, INS-1E cells, GLuc reporter luminescence; INS-1E GLuc reporter insulin secretion, 2-3 h; AID 743287; activation, % at 16.6 µM; 370,000 compounds, 0.61% hits;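 active means lowest replicate activation of at least 40%, so every replicate reaches that level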;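 further: 0% = median of neutral control wells and 100% = median of IBMX positive control wells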
PglD inh: blocks C. jejuni PglD acetyltransferase activity | purified PglD enzyme, DTNB colorimetric CoA detection | AID 602405 | inhibition, % at 12.5 µM | 360,000 compounds, 0.098% hits; in the data active means inhibition above about 16%, passing the limit was not always enough; inconclusive means no clear call, values can overlap the other calls
RAD54 branch: RAD54 (human) branch migration inhibition | AID 602329 | inhibition, % at 10.4 µM | Q92698 | 360,000 compounds, 0.14% hits | RAD54 Holliday junction branch migration, FAM/BHQ fluorescence;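 active means mean normalized replicate activity at least 40 and at least half of replicates scoring 40 or more; inconclusive means only one of the two criteria met; inactive means mean below 40 and under half of replicates reaching 40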;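 further: 0% = median of neutral control wells and 100% = median of positive control wells; inhibitors cause a drop in the FAM fluorescence signal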
RAD52 anneal inh: RAD52 (human) annealing inhibition; P43351; recombinant RAD52 DNA annealing, FRET fluorescence; inhibition, % at 18.7 µM; 360,000 compounds, 0.46% hits;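 active means every replicate showing at least 50% inhibition; inconclusive means mean inhibition at least 50% but not in every replicate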
DNA binder FP: counter-screen for RAD52 inhibitors: DNA binding compounds. shares compounds with RAD52 anneal inh. Salmon sperm DNA/acridine orange FP displacement. AC50, µM. 1,000 compounds, 8% hits;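 active means fitted half-maximal concentration for signal loss at or below twice the highest dose tested, in every separate run, actives reach about 64 µM in these data; inconclusive means runs disagree, or flat partial signal loss, or poor fit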
* = called active by the depositor; i = inactive; ? = inconclusive; · = no result given; ! = not confirmed by another sample. This is a sample that favours compounds with a hit; in the whole collection about 1.5% have one here.

entry	smiles	UUG fidelity	CASP6 VEID inh	GSIS activator	PglD inh	RAD54 branch	RAD52 anneal inh	DNA binder FP
1	O=C(NCCCCCCCN1CCCCCCC1)C(C1CCCCC1)C1CCCCC1	·	-97	·	·	·	82*	i
2	O=C(NCCCN1CCOCC1)NC1CCCCC1	15	·	·	-11	-1	·	·
3	Cc1cc2cc(CNC(=O)NC3CCCCC3)ccc2n1C	-32	1	·	-4	11	66*	i
4	Cc1cc2cc(CNC(=O)NC3CCCCC3)ccc2[nH]1	-8	·	-16	2	-3	·	·
5	Cc1cccc(N/C(N)=N/c2nc(C)cc(C)n2)c1	-1	·	·	1	-16	·	·
6	CC(=O)Nc1cccc(N/C(N)=N/c2nc(C)cc(C)n2)c1	·	3	8	·	·	57*	i
7	N=C(N)c1ccc(/C=C/c2ccc(C(=N)N)cc2O)cc1	·	-50	-6	·	·	97*	i
8	N#C/C(=C\c1ccc(Cl)cc1Cl)c1n[nH]c(Cn2cncn2)n1	-26	·	·	6	-8	·	·
9	CC(C)NC(=O)N1CC(c2ccccc2)C(c2ccc(Cl)cc2)=N1 (configuration not stated)	2	1	-9	-6	3	97*	i
10	CC(C)C[C@H](N)c1cn([C@@H](Cc2cc3ccccc3[nH]2)C(=O)N2CCNCC2)nn1	2	·	6	-5	11	·	·
11	CCC(C)[C@H](N)c1cn([C@@H](Cc2cc3ccccc3[nH]2)C(=O)N2CCNCC2)nn1 (some centres not stated)	-3	-95	6	6	12	96*	i
12	OCCCCNCc1ccc(OCc2ccc(Cl)cc2Cl)cc1	-15	-29	2	-6	20	66*	i
13	OCCNCc1ccc(OCc2ccc(Cl)cc2Cl)cc1	·	-7	20	·	·	13	·
14	C[C@@H]1CN([C@H](C)CO)S(=O)(=O)c2ccc(C#Cc3ccccc3)cc2O[C@H]1CN(C)C(=O)Cc1ccccn1	-9	2	-3	-3	1	-15	·
15	O=C1c2ccccc2C(=O)c2c(NCCCN(CCO)CCO)cccc21	·	-6	17	·	·	93*	4.3µM*
16	CN(C)CCCNC(=O)C(=O)Nc1cc2c3c(c1)CC(=O)N3CCC2	-9	-173	5	0	-3	97*	i
17	CN(C)CCNC(=O)C(=O)Nc1cc2c3c(c1)CCC(=O)N3CCC2	-13	-1	-1	-4	8	3	·
18	Cc1ccc(C(=O)NCCN2C3=NC[C@@H](Cc4ccccc4)N3C[C@H]2Cc2ccc(O)cc2)cc1Br	3	6	-55	-2	0	49	i
19	CCCCCCCCCCCCCCCC[N+](C)(C)Cc1ccc(F)cc1	·	-196	·	·	·	91*	26µM*
20	C=C(C)Cn1c(N2CCC(Cc3ccccc3)CC2)nc2c1c(=O)[nH]c(=O)n2C	-9	·	-13	2	12	·	·
21	CC(C)(c1ccccc1)c1ccc(OCCCN2CCNCC2)cc1	·	15	-5	·	·	57*	i
22	CC(C)(C)c1ccc(OCCCCCCN2CCNCC2)cc1	-15	-86	-9	-6	11	42	·
23	C(#Cc1ccccc1)C[N+]1(CC#Cc2cccc3ccccc23)CCCC1	·	-16	-21	·	·	66*	i
24	C#CC[N+]1(CC#Cc2ccccc2)CCCC1	-13	·	2	-1	4	·	·

Whole records, quoted from the list.
Shown for CCCCCCCCCCCCCCCC[N+](C)(C)Cc1ccc(F)cc1 : UUG fidelity: ·; CASP6 VEID inh: -196; GSIS activator: ·; PglD inh: ·; RAD54 branch: ·; RAD52 anneal inh: 91*; DNA binder FP: 26µM*
Shown for CC(C)(C)c1ccc(OCCCCCCN2CCNCC2)cc1 : UUG fidelity: -15; CASP6 VEID inh: -86; GSIS activator: -9; PglD inh: -6; RAD54 branch: 11; RAD52 anneal inh: 42; DNA binder FP: ·
Shown for CN(C)CCNC(=O)C(=O)Nc1cc2c3c(c1)CCC(=O)N3CCC2 : UUG fidelity: -13; CASP6 VEID inh: -1; GSIS activator: -1; PglD inh: -4; RAD54 branch: 8; RAD52 anneal inh: 3; DNA binder FP: ·

(more compounds)
Screens by letter – A = UUG fidelity; B = CASP6 VEID inh; C = GSIS activator; D = PglD inh; E = RAD54 branch; F = RAD52 anneal inh; G = DNA binder FP
#25 O=C(Nc1ccc(F)cc1)N1CCCN(c2nccc(C(F)(F)F)n2)CC1
  A = ·	B = 2	C = -32	D = ·	E = ·	F = -8	G = ·

#26 CN(C)CC/C=C1\c2ccccc2Sc2cc(F)c(Cl)cc21
  A = ·	B = -8	C = -2	D = ·	E = ·	F = 63*	G = i

#27 CN(C)CC/C=C1\c2ccc(F)cc2Sc2cc(F)c(Cl)cc21
  A = -8	B = 7	C = 28	D = 5	E = 38	F = 71*	G = i

#28 CN(C)CC/C=C1/c2cc(F)ccc2CSc2ccc(F)cc21
  A = ·	B = ·	C = -26	D = ·	E = ·	F = ·	G = ·

#29 CN(C)CC/C=C1\c2cc(Cl)ccc2Sc2cc(F)c(F)cc21
  A = ·	B = -7	C = ·	D = ·	E = ·	F = 62*	G = i

#30 CN(C)CC/C=C1\c2ccccc2Sc2ccc(Cl)cc21
  A = 0	B = 1	C = 12	D = 3	E = 9	F = 46	G = ·

#31 CN(C)CC/C=C1/c2ccc(F)cc2Sc2ccc(Cl)cc21
  A = -11	B = 5	C = 16	D = 0	E = 29	F = 62*	G = i

#32 CC(C)C#Cc1cnc2c(c1)C(=O)N([C@@H](C)CO)C[C@H](C)[C@@H](CN(C)Cc1ccccn1)O2
  A = -20	B = -1	C = -6	D = -5	E = -18	F = -12	G = ·

#33 O=C1CCN(CCc2ccccc2)CCN1[C@H](CO)c1ccccc1
  A = -13	B = -1	C = ·	D = 7	E = -2	F = -5	G = ·

#34 COc1cc2c[n+](C)c3c4ccccc4ccc3c2cc1OC
  A = ·	B = -20	C = -17	D = ·	E = ·	F = 104*	G = ?

#35 COc1ccc2c(c1)c[n+](C)c1c3cc(OC)c(OC)cc3ccc21
  A = ·	B = -7	C = ·	D = ·	E = ·	F = 109*	G = 36µM*

#36 CCN(Cc1ccccc1)c1ccccc1
  A = -19	B = -2	C = -4	D = 2	E = -2	F = -7	G = ·

#37 CCN(Cc1ccccc1)c1ccc(/C=N/N=C(N)N)cc1
  A = -14	B = 4	C = ·	D = -1	E = 7	F = 92*	G = i

#38 COc1ccc(N2C(=O)CC(N(C)CCc3ccc(OC)c(OC)c3)C2=O)cc1 (configuration not stated)
  A = -4	B = -1	C = 6	D = 2	E = -2	F = -5	G = ·

#39 CN(C)CCCNc1nc2cc(-c3cnn(Cc4ccccc4)c3)sc2c(=O)n1C
  A = 14	B = -16	C = -5	D = -6	E = 48	F = 59*	G = i

#40 CN(C)CCCNc1nc2cc(-c3ccsc3)sc2c(=O)n1C
  A = ·	B = -17	C = -6	D = 0	E = 32	F = 52*	G = i

#41 Cc1ccc(F)cc1-c1cc2nc(NCCCN(C)C)n(C)c(=O)c2s1
  A = -9	B = 0	C = -12	D = -3	E = 33	F = 56*	G = i

#42 CC1CCCC(NCC(O)COC(c2ccc(F)cc2)c2ccc(F)cc2)C1C (configuration not stated)
  A = -1	B = 2	C = 5	D = -1	E = 11	F = 44	G = ·

#43 CNC12CCc3cc(OC)c(OC)c(c31)-c1cc3c(cc1C2)OCO3 (configuration not stated)
  A = ·	B = 8	C = -21	D = ·	E = ·	F = 54*	G = i

#44 COc1cc2c(c(OC)c1OC)-c1c(cc3c(c1O)OCO3)C[C@@H](C)[C@@H](C)C2
  A = 2	B = 1	C = -35	D = 2	E = -5	F = 8	G = ·

#45 O=C(C1CCCCC1)N1CC(=O)N2[C@H](C1)[C@@H](c1ccc(-c3cccnc3)cc1)[C@@H]2CO
  A = ·	B = 2	C = 4	D = ·	E = ·	F = -8	G = ·

#46 CN(C)CCN(C)Cc1ccccc1Sc1cccc2ccccc12
  A = -3	B = -2	C = 8	D = -5	E = 12	F = 52*	G = i

#47 CC(C)CC#Cc1ccc2c(c1)O[C@H](CN(C)C(=O)Cc1ccccc1)[C@@H](C)CN([C@H](C)CO)S2(=O)=O
  A = 37	B = -3	C = -11	D = 1	E = -6	F = 21	G = ·

#48 O=C1c2c(O)ccc(O)c2C(=O)c2c(NCCNCCO)ccc(NCCNCCO)c21
  A = -6	B = -238	C = 0	D = 3	E = 122*	F = 102*	G = 1.5µM*!

#49 O=C(c1ccc(Cn2c(=S)[nH]c3ccc(N4CCOCC4)cc3c2=O)cc1)N1CCC(N2CCCCC2)CC1
  A = ·	B = -2	C = -32	D = ·	E = ·	F = 87*	G = i

#50 O=C(NC1CCN(Cc2ccccc2)CC1)c1ccc(Cn2c(=S)[nH]c3ccc(N4CCOCC4)cc3c2=O)cc1
  A = -16	B = -5	C = -1	D = 1	E = 4	F = -19	G = ·
